Screening results as filed in PubChem.
miR-21 FLuc: raises the signal of a miR-21 reporter | HeLa miR-21 FLuc reporter, luciferase, 48 h | 340,000 tested, under 10 active | Potency, µM (titrated, usually from 38.3 µM), inactives show at the highest dose reporter change, positive = more light; active = well fitted rising curve with a large enough effect; inconclusive = small, poorly fitted or top-dose-only effect; inactive = no such curve, though single readings can be large or run the other way;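 further: % of control where 0% means no effect; miR-21 action dims this reporter so a rising signal means less miR-21 action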
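Luminescence from a firefly luciferase reporter carrying a miR-21 binding site downstream, stably expressed under a CMV promoter in HeLa cells that make miR-21 endogenously, reports miRNA modulation after 48 h compound exposure up to approximately 40uM final.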
JMJD2E inh: blocks human JMJD2E demethylase activity | actives 1.6% (n = 230,000) | B2RXH2 | Potency, µM (titrated, usually from 57.1 µM), for inactives: top-dose activity change, negative = inhibition, hits mostly inhibitors | JMJD2E catalytic domain, FDH-coupled NADH fluorescence (FDH is formaldehyde dehydrogenase) | AID 2147; active = well fitted inhibition curve with a large enough effect, not every such curve was filed as active; inconclusive = small, poorly fitted or top-dose-only effect, or another doubt; inactive = no such curve, though single readings can be large or run the other way;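 also: potency is read from the fitted curve at half-maximal effect; 0% = wells with enzyme and -100% = buffer wells without enzyme; nearly all actives have a fitted effect of over 50% in size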
G9a block: blocks human histone lysine methyltransferase G9a. Q96KQ7. G9a H3K9 monomethylation, AlphaScreen, 2 h. Potency, µM (doses to about 102 µM), for inactives: at the top dose activity, negative = inhibition, actives largely listed as inhibitors. actives 8.8% (n = 350,000); also: potency is read from the fitted curve at half-maximal effect; % is scaled to controls: 0 for no effect and ±100 for the full control effect; nearly all actives have a fitted effect of over 75% in size
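G9a (20 nM) preincubated 15 min RT with compounds, then 500 nM biotinylated H3K9 peptide and 20 uM SAM added; 2 h RT reaction. Monomethyl-H3K9 product detected by AlphaScreen with anti-H3K9me1 antibody, streptavidin donor and anti-rabbit IgG acceptor beads.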
ALDH1A1 block: ALDH1A1 (human) enzyme inhibition | Potency, µM (doses to about 75.3 µM), without a hit: top-dose activity, negative = inhibition, usual class: inhibitors | P00352 | Purified ALDH1A1, NADH fluorescence, propionaldehyde substrate | AID 1030 | actives 7.3% (n = 220,000); active = well fitted inhibition curve with a large enough effect, not every such curve was filed as active; inconclusive = small, poorly fitted or top-dose-only effect, or another doubt; inactive = no such curve, though single readings can be large or run the other way;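 also: potency is read from the fitted curve at half-maximal effect; plate controls were no enzyme wells and a reference inhibitor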
Lamin A splicing: LMNA splicing modulation; HeLa LMNA splicing GFP/RFP minigene ratio, 48 h; Potency, µM (doses to about 46.1 µM), inactives show at the top dose ratio change, negative = inhibition, usual class: inhibitors; actives 0.01% (n = 200,000); active = well fitted inhibition curve with a large enough effect in the signal ratio, with a control signal flat, not every such curve was filed as active; inconclusive = small, poorly fitted or top-dose-only effect, or effect the other way, or a change in a side signal; the % refers to the signal ratio; also: potency is read from the fitted curve at half-maximal effect; % is scaled to controls: 0 for no effect and ±100 for the full control effect
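S3 HeLa cells stably expressing lamin A-EGFP splicing minigene plus DsRed2, 600 cells/well, 48 h compound exposure at 37C. Laser-scanning cytometry; analysed as GFP (500-530 nm)/RFP (575-640 nm) total intensity ratio; 0.5% DMSO vehicle.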
Sfp PPTase inh: inhibitors of Bacillus subtilis Sfp phosphopantetheinyl transferase. Q9F4F7. Biochemical Sfp PPTase activity, qHTS. Potency, µM, inactives show max response, negative = inhibition, most hits filed as inhibitors. 3.5% of 310,000 active. AID 1490; active = well fitted inhibition curve with a large enough effect; inconclusive = small, poorly fitted or top-dose-only effect, or another doubt; inactive = no such curve, though single readings can be large or run the other way;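 also: the enzyme is Sfp with the accession as filed and its product quenches rhodamine fluorescence; potency is read from the fitted curve at half-maximal effect; 0% = enzyme reaction without inhibitor and -100% = no enzyme wells; top concentration of the series not given in the record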
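Step 1, compound plus 15 nM Sfp-PPTase, 15 min, room temperature. Step 2, add rhodamine-CoA (5 uM) and BHQ-2-YbbR (12.5 uM). Step 3, read 525/598 nm fluorescence at 0 and 30 min.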
Active calls of the source: *; ? = inconclusive; / = not tested or not shown; [ ] = dose if it differs, or a comment. Most compounds without a hit are left out; they make up all but 13% or so of the library. Unless noted, calls follow the shape of the dose curve; as a rule, active = well fitted curve in the direction sought with a large enough effect; inconclusive = small, poorly fitted or top-dose-only effect, or another doubt; inactive = no such curve, though single readings can be large; an effect the other way counts as inactive or inconclusive.

Key to letters: A = miR-21 FLuc; B = JMJD2E inh; C = G9a block; D = ALDH1A1 block; E = Lamin A splicing; F = Sfp PPTase inh
Structure: Cc1nnc(NC(=O)c2ccc(S(=O)(=O)N3CCc4ccccc4C3)cc2)o1
  A: -2% | B: ? | C: -25% | D: -2% | E: 39%[46 µM] | F: 16%
Structure: Cc1cc(C)c2sc(NNC(=O)c3ccc(S(=O)(=O)N4CCc5ccccc5C4)cc3)nc2c1
  A: 12% | B: 13µM* | C: ? | D: 2% | E: ? | F: 10%
Structure: CC(=O)Oc1ccc(C(=O)Nc2ccc(S(=O)(=O)N3CCOCC3)cc2)cc1
  A: -6% | B: / | C: -5% | D: / | E: / | F: 12%
Structure: CCOc1ccccc1-c1ccc(C(=O)O)o1
  A: / | B: / | C: 1%[135 µM] | D: ? | E: / | F: -2%
Structure: CCc1c(C)sc(NC(=O)C2CC2c2ccccc2)c1C(N)=O (stereo unspecified)
  A: 14% | B: -2% | C: 14µM* | D: -20% | E: ? | F: -4%
Structure: O=C(NNc1ccc([N+](=O)[O-])cc1)C1CC1c1ccccc1 (stereo unspecified)
  A: -3% | B: 9% | C: 10µM* | D: 10µM* | E: 5% | F: -6%
Structure: CC(C)c1ccc(NC(=O)C2CC2c2ccccc2)cc1 (stereo unspecified)
  A: -9% | B: / | C: ? | D: / | E: / | F: 2%
Structure: NNC(=O)[C@@H]1C[C@@H]1c1ccccc1
  A: -7% | B: 25% | C: 1%[59 µM] | D: 7% | E: -5% | F: -2%
Structure: NNC(=O)C1CC1c1ccccc1 (stereo unspecified)
  A: -1% | B: -4% | C: -10% | D: 4µM* | E: -3% | F: 13%
Structure: O=C(O)C1CC=CCC1C(=O)NNc1ccccc1 (stereo unspecified)
  A: 3% | B: 2% | C: 14µM* | D: -9% | E: ? | F: 17%
Structure: O=C(c1ccnc(Cl)c1)N1CCCC(N2CCN(c3ccccc3F)CC2)C1 (stereo unspecified)
  A: 1% | B: / | C: -7% | D: / | E: / | F: 8%
Structure: CC1=C(C(=O)Nc2ccc(C)cc2C)C(c2ccc(Br)cc2)n2ncc(C(=O)Nc3cccc(C)c3)c2N1 (stereo unspecified)
  A: 8% | B: / | C: -27%[59 µM] | D: / | E: 10%[46 µM] | F: /
Structure: O=C(COc1ccccc1Cl)Nc1cccc(S(=O)(=O)NC2=NCCCCC2)c1
  A: / | B: / | C: 50µM* | D: / | E: / | F: /
Structure: CN(C)S(=O)(=O)c1ccc(C(=O)Nc2cccc(S(=O)(=O)NC3=NCCC3)c2)cc1
  A: 2% | B: 4% | C: 2% | D: -16% | E: / | F: 4%
Structure: CC1(C)Oc2ccc(NC(=O)C3COc4ccccc4O3)cc2O1 (stereo unspecified)
  A: -21% | B: -4% | C: -5% | D: 0.035µM* | E: -6% | F: -7%
Structure: O=C(Nc1cccc(S(=O)(=O)NC2=NCCCCC2)c1)c1ccc(Cl)cc1
  A: / | B: / | C: 50µM* | D: / | E: / | F: /
Structure: Cc1ccc(NC(=O)C2COc3ccccc3O2)cc1 (stereo unspecified)
  A: -32% | B: / | C: / | D: / | E: / | F: 4%
Structure: O=C(COc1cc(F)ccc1[N+](=O)[O-])Nc1cccc(S(=O)(=O)NC2=NCCC2)c1
  A: / | B: / | C: 3.2µM* | D: / | E: / | F: /
Structure: CCc1ccc(-c2nc(CN3CCCC(C(=O)NCc4ccccc4Cl)C3)c(C)o2)cc1 (stereo unspecified)
  A: 26% | B: / | C: ? | D: / | E: / | F: /
Structure: Cc1cc(Cl)ccc1NC(=O)C1CCN(c2nnc(-n3c(C)ccc3C)s2)CC1
  A: 8% | B: / | C: 11%[59 µM] | D: / | E: / | F: /
Structure: O=C(NCCN1CCN(C(=O)c2ccc([N+](=O)[O-])cc2)CC1)C(=O)Nc1ccc(F)cc1
  A: 0% | B: / | C: 48% | D: / | E: / | F: 9%
Structure: N#Cc1ccc(C(=O)Nc2ccc(S(=O)(=O)NC3=NCCCCC3)cc2)cc1
  A: 7% | B: 6% | C: 50µM* | D: ? | E: ? | F: 1%
Structure: CCc1cc(C(=O)Nc2ccc(S(=O)(=O)NC3=NCCCCC3)cc2)sc1C
  A: / | B: / | C: 40µM* | D: / | E: / | F: /
Structure: O=C(Nc1cccc(S(=O)(=O)NC2=NCCCCC2)c1)C1COc2ccccc2O1 (stereo unspecified)
  A: -1% | B: 6% | C: 50µM* | D: -7% | E: -17%[46 µM] | F: 20%
Structure: O=c1cc(-c2ccccc2)c2cc(Cl)c3c(c2o1)CN(Cc1ccccc1)CO3
  A: -5% | B: / | C: 25%[59 µM] | D: / | E: / | F: /

The closing two entries of the part before open the next one:
Key to letters: A = miR-21 FLuc; B = JMJD2E inh; C = G9a block; D = ALDH1A1 block; E = Lamin A splicing; F = Sfp PPTase inh
Structure: O=C(Nc1cccc(S(=O)(=O)NC2=NCCCCC2)c1)C1COc2ccccc2O1 (stereo unspecified)
  A: -1% | B: 6% | C: 50µM* | D: -7% | E: -17%[46 µM] | F: 20%
Structure: O=c1cc(-c2ccccc2)c2cc(Cl)c3c(c2o1)CN(Cc1ccccc1)CO3
  A: -5% | B: / | C: 25%[59 µM] | D: / | E: / | F: /
Structure: CCCCC(CC)COS(=O)(=O)O (stereo unspecified)
  A: / | B: / | C: -3%[12.7 µM] | D: / | E: / | F: -3%
Structure: CCCCC(CC)COCC1CO1 (stereo unspecified)
  A: / | B: / | C: / | D: 13µM* | E: / | F: /
Structure: CSC1=C(C#N)C(c2ccccc2Cl)C(C(C)=O)=C(C)N1 (stereo unspecified)
  A: 0% | B: -15% | C: 15%[59 µM] | D: ? | E: -5% | F: -5%
Structure: CC(=O)C1=C(C)NC(SCC(=O)c2ccccc2)=C(C#N)C1CC(C)C (stereo unspecified)
  A: -5% | B: ? | C: ? | D: 7.1µM* | E: 4% | F: 20µM*
Structure: CC(=O)C1=C(C)NC(SCC(=O)c2ccc(Cl)cc2Cl)=C(C#N)C1c1ccco1 (stereo unspecified)
  A: 2% | B: -27% | C: ? | D: ? | E: ? | F: 45µM*
Structure: N#CC1=C(SCC(=O)c2ccc(Br)cc2)NC2=C(C(=O)CCC2)C1c1ccco1 (stereo unspecified)
  A: 19% | B: -3% | C: -6%[59 µM] | D: ? | E: -1% | F: -24%
Structure: CCOC(=O)CSC1=C(C#N)C(c2ccco2)C(C(=O)Nc2cccc(C(F)(F)F)c2)=C(C)N1 (stereo unspecified)
  A: 27% | B: ? | C: 8%[59 µM] | D: ? | E: 0% | F: 10%
Structure: CC(=O)C1=C(C)NC(SCC(=O)c2ccccc2)=C(C#N)C1c1ccco1 (stereo unspecified)
  A: -13% | B: -30% | C: ? | D: 20µM* | E: ? | F: 56µM*
Structure: CC(=O)C1=C(C)NC(SCC(=O)c2ccc(Cl)cc2)=C(C#N)C1c1ccco1 (stereo unspecified)
  A: -4% | B: -11% | C: ? | D: 20µM* | E: ? | F: 50µM*
Structure: CCN(CC)C(=S)Sc1c(-c2ccccc2)c2cc(Cl)ccc2[nH]c1=O
  A: -5% | B: 0% | C: -39%[12.7 µM] | D: ? | E: -2% | F: 16µM*
Structure: O=C(O)CSc1c(-c2ccccc2)c2cc(Cl)ccc2[nH]c1=O
  A: 1% | B: 5% | C: -3%[59 µM] | D: 0% | E: -16% | F: 71µM*
Structure: O=c1[nH]c2ccc(Cl)cc2c(-c2ccccc2)c1N1CCOCC1
  A: 8% | B: -15% | C: -2%[59 µM] | D: ? | E: -10% | F: -7%
Structure: O=c1[nH]c2ccc(Cl)cc2c(-c2ccccc2)c1CN1CCOCC1
  A: 1% | B: ? | C: 35µM* | D: -12% | E: -1% | F: -4%
Structure: O=c1[nH]c2ccc(Cl)cc2c(O)c1Cc1ccccc1
  A: 0% | B: -5% | C: -11% | D: ? | E: / | F: 50µM*
Structure: CCOC(=O)CSc1c(-c2ccccc2)c2cc(Cl)ccc2[nH]c1=O
  A: -6% | B: -15% | C: 23%[59 µM] | D: ? | E: 9% | F: -24%
Structure: Cc1ccccc1CN1C(=O)c2ccccc2S(=O)(=O)c2ccc(C(=O)OCC3CCCO3)cc21 (stereo unspecified)
  A: 2% | B: / | C: -3%[59 µM] | D: / | E: / | F: /
Structure: CN(C)[C@@H]1C(=O)C(C(N)=O)=C(O)[C@]2(O)C(=O)C3=C(O)c4c(O)ccc(Cl)c4[C@H](O)[C@H]3C[C@@H]12
  A: / | B: ? | C: ? | D: -3%[20.9 µM] | E: ? | F: 20%

Gathered by group, those above containing bromine
Key to letters: A = miR-21 FLuc; B = JMJD2E inh; C = G9a block; D = ALDH1A1 block; E = Lamin A splicing; F = Sfp PPTase inh
Structure: CC1=C(C(=O)Nc2ccc(C)cc2C)C(c2ccc(Br)cc2)n2ncc(C(=O)Nc3cccc(C)c3)c2N1 (stereo unspecified)
  A: 8% | B: / | C: -27%[59 µM] | D: / | E: 10%[46 µM] | F: /
Structure: N#CC1=C(SCC(=O)c2ccc(Br)cc2)NC2=C(C(=O)CCC2)C1c1ccco1 (stereo unspecified)
  A: 19% | B: -3% | C: -6%[59 µM] | D: ? | E: -1% | F: -24%
